Drawing on PubChem BioAssay AID602313 (National Center for Advancing Translational Sciences (NCATS), 2012), this text covers activity, negative = active for 50 molecules.

The structures appear in SMILES notation. The entries are a selection whose mix differs from that of the whole data set. Activity calls are given as the source filed them. Calls follow the shape of the dose curve; as a rule, active = well fitted inhibition curve with a large enough effect; inconclusive = small, poorly fitted or top-dose-only effect; inactive = flat fitted curve, though single readings scatter.

The assay in a line: qHTS for Inhibitors of Vif-A3F Interactions: qHTS. Also: % of control where 0% means no effect; nearly all actives have a fitted effect of over 65% in size. The settings on record: HeLa A3F-eYFP + Vif (tagged APOBEC3F with the HIV-1 protein that degrades it), YFP fluorescence increase; at 46.1 µM (top of the series). The source says: The recent discovery and characterization of host restriction factors, which provide a potent defense to invading retroviruses, has provided new targets for antiviral drug development. APOBEC3G (A3G) and APOBEC3F (A3F) are potent cytidine deaminases that block HIV-1 replication; HIV-1 expresses the Vif protein, which counteracts A3G and A3F by binding to them and inducing their proteasomal degradation. The Vif-A3G and Vif-A3F interactions provide two potential targets for development of small molecules which can interfere with the ability of Vif to degrade A3G or A3F. […] To identify inhibitors that can interfere with Vif mediated degradation of A3G and A3F, we have developed Hela cell lines that stably express A3G or A3F tagged with eYFP at the C-terminal end (A3G-eYFP or A3F-eYFP, respectively) and Vif. In the absence of an inhibitor, Vif induces degradation of A3G-eYFP and A3F-eYFP, and the cells are not fluorescent. In the presence of an inhibitor, it is expected that Vif will be unable to degrade A3G-eYFP and/or A3F-eYFP, resulting in an increase in yellow fluorescence. In this assays Vif A3F was screened against the Molecular Library Small Molecule Repository (MLSMR). NIH Chemical Genomics Center [NCGC] NIH Molecular Libraries Probe Centers Network [MLPCN] MLPCN Grant: MH093245 Assay Submitter (PI): Vinay Pathak, National Cancer Institute
5 uL of 700 cells/well of A3F-YFP cells are dispensed into black, clear bottom plates. The plates are incubated overnight at 37 deg C. 23 nL of compounds are added by pintool. The plates are incubated overnight at 37 deg C and then read on the TTP Acumen (Ex 488/ Em 500-530).
(In qHTS, concentration-response curves come from the screen itself.)
On to `O=C(COc1ccccc1)OC1CN2CCC1CC2` (stereo not given), for which the activity, negative = active is inactive: -2.79%.
In the case of `O=C(Nc1ccncc1[N+](=O)[O-])c1ccc([N+](=O)[O-])cc1[N+](=O)[O-]` it was inactive: 7.48%.
Next, `O=C(O)C(=O)c1ccc(N(CCCl)CCCl)cc1`: inactive: 0.843%; `COP1(=S)c2c(C)nn(CCC#N)c2N=C(c2ccc(F)cc2)N1C` (stereo not given): inactive: -3.74%.
As for `CCC(C)N(CC(C)C)C(=S)SC(NC(C)=O)C(Cl)(Cl)Cl` (stereo not given), the activity, negative = active is inactive: 6.88%.
Next, `CCOC(=O)c1ccc(NC(=O)C(C)(CCl)SC)cc1` (stereo not given): inactive: 5.55%; `O=C(OC1CN2CCC1CC2)c1cccc([N+](=O)[O-])c1` (stereo not given): inactive: 5.74%; `CCCCOc1ccc(C(=O)NCC2(N3CCCCC3)CCCCC2)cc1OC`: inactive: -6.95%.
Take `Cc1cc(SC(NC(=O)c2ccccc2)C(Cl)(Cl)Cl)nc(C(C)C)n1` (stereo not given): the activity, negative = active is inactive: -14.7%.
Regarding `COP(=O)(OC)N1CC1c1ccccc1` (stereo not given), the activity, negative = active was inactive: -0.287%.
With `CC1CCNP(=O)(N(CCCl)CCCl)O1` (stereo not given), the activity, negative = active was inactive: -11%.
In the case of `CCOC(=O)Nc1ccc([As](=O)(O)O)c(O)c1` it was inactive: -6.86%; in that of `O=C(O)C(O)c1ccc(N(CCCl)CCCl)cc1` (stereo not given), inactive: -0.773%; in that of `O=[N+]([O-])c1ccc(Nc2ccc(Oc3ccc([N+](=O)[O-])cc3[N+](=O)[O-])cc2)c([N+](=O)[O-])c1`, inactive: -5.49%.
Next, `O=P(Nc1ccccn1)(c1cccc2ccccc12)c1cccc2ccccc12`: inactive: 18.5%.
Next, `Cc1cc(SC(NC=O)C(Cl)(Cl)Cl)ncn1` (stereo not given): inactive: -26.2%; `CCOC(=O)Nc1cccc([As](=O)(O)O)c1`: inactive: 13.2%.
In the case of `Cc1ccc2nc3c(c(C)c2c1)CC(C(Cl)Cl)S3` (stereo not given), the activity, negative = active was inactive: 1.37%.
On to `Cc1ccc(OP(=O)(Nc2ccc([N+](=O)[O-])cn2)Oc2ccc(C)cc2)cc1`, for which the activity, negative = active is inactive: -2.3%.
In the case of `C[As](=O)(O)c1cccc(C(=O)O)c1` it was inactive: -5.41%; in that of `O=[As](O)(c1ccc(O)cc1)c1ccccc1O`, inactive: -4.47%; in that of `COc1cc(C(=O)NCC2(N3CCOCC3)CCCCC2)ccc1OCC(C)C`, inactive: -5.03%.
Turning to `O=[N+]([O-])c1ccc(-c2cc([N+](=O)[O-])c(O)c([N+](=O)[O-])c2)cc1`, the activity, negative = active was inactive: -11.1%.
Consider `O=C(OC1CN2CCC1CC2)c1cccc2[nH]cnc12` (stereo not given), for which the activity, negative = active is inactive: 10.9%.
Next, `CCN(CC)C(=S)SC(NC=O)C(Cl)(Cl)Cl` (stereo not given): inactive: -3.36%; `CC(C)NC(=O)NP(=O)(Oc1ccccc1)Oc1ccccc1`: inactive: -18.7%.
Turning to `O=[N+]([O-])c1cc([N+](=O)[O-])c(-c2ccn[nH]2)s1`, the activity, negative = active was inactive: -5.23%.
In the case of `CC(C)c1ccc(OP(=O)(Nc2ccccn2)Oc2ccccc2F)cc1` (stereo not given) it was inactive: 0.684%; in that of `COC(=O)C1(C)COP(=O)(N2CCCCCC2)OC1` (stereo not given), inactive: -8.85%.
Regarding `ClCCSc1nnc(-c2cccnc2)o1`, the activity, negative = active was inactive: -2.39%.
In the case of `COc1ccc2nc(NP(=O)(c3ccccc3)c3ccccc3)sc2c1` it was inactive: -17.1%; in that of `COc1cc(I)ccc1[As](=O)(O)O`, inactive: 4.14%.
For `O=P1(N(CCCl)CCCl)Nc2ccccc2N1`, the activity, negative = active was inactive: 2.43%.
Take `O=P1(N(CCCl)CCCl)OCCCN1CCCl` (stereo not given): the activity, negative = active was inactive: -10.2%.
Consider `O=C(OC1CN2CCC1CC2)C12CC3CC(CC(C3)C1)C2` (stereo not given), for which the activity, negative = active was inactive: 0%.
In the case of `Cc1cc(=O)[nH]c(N[N+](=O)[O-])n1`, the activity, negative = active is inactive: 9.82%.
As for `Cc1c2c(nc3ccccc13)SC(C(Cl)Cl)C2` (stereo not given), the activity, negative = active is inactive: 2.68%.
Turning to `COc1ccc(N/C(=N/P(=O)(N2CCOCC2)N2CCOCC2)N2CCOCC2)cc1`, the activity, negative = active was inactive: 6.6%.
In the case of `O=[N+]([O-])c1cc(Oc2ccc([N+](=O)[O-])cc2C(F)(F)F)cc([N+](=O)[O-])c1` it was inactive: -7.18%; in that of `O=[As](O)(c1cccc(O)c1)c1cccc(O)c1`, inactive: 14.2%; in that of `Cc1cccc(OCC(=O)OC2CN3CCC2CC3)c1` (stereo not given), inactive: 3.01%.
Next, `COc1cc(C(=O)NCC2(N3CCOCC3)CCCCC2)cc(Cl)c1OC(C)C`: inactive: 11.3%; `O=[As](O)(O)c1cccnc1`: inactive: 0.515%.
Next, `CS(=O)(=O)c1ccc(Cl)c(NC(=O)COC(=O)C(O)(c2ccccc2)c2ccccc2)c1`: inactive: 4.46%.
On to `O=C(OC1CN2CCC1CC2)c1ccc(Cl)cc1` (stereo not given), for which the activity, negative = active is inactive: -1.37%.
In the case of `COc1cc(C2NCCC3(OCCO3)C2(C)C)cc(OC)c1OC` (stereo not given), the activity, negative = active is inactive: -3.36%.
In the case of `CCOP(=O)(Nc1cccc2ccccc12)OCC` it was inactive: 0.483%.
In the case of `CCCOP(=S)(Nc1nc(N)cc(=O)[nH]1)OCCC` it was inactive: -3.33%; in that of `Nc1cccc2c([As](=O)(O)O)cccc12`, inactive: 3.79%.
Next, `Cc1ccc(NCCc2c([N+](=O)[O-])cc([N+](=O)[O-])cc2[N+](=O)[O-])cc1`: inactive: -12.5%.
